Activity calls are given as the source filed them.
Columns and labels:
[1] = target: T1, DNA repair protein RAD51 homolog 1 (Homo sapiens) (UniProt Q06609); conditions: 59 uM
T1 sequence (whole entry): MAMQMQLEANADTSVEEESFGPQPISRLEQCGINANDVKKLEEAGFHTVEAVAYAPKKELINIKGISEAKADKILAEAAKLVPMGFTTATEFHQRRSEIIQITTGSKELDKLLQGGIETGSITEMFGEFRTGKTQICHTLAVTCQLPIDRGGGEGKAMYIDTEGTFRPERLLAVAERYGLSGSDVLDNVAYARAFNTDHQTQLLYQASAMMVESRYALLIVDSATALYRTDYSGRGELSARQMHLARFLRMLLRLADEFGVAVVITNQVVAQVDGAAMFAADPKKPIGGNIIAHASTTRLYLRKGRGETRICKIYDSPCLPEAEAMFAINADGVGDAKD

[2] = target: T1, DNA repair protein RAD51 homolog 1 (Homo sapiens); conditions: 10 uM
[3] = target: T1, DNA repair protein RAD51 homolog 1 (Homo sapiens); conditions: HEK293, 20 uM

Measured: inhibition

O=C1C(Cl)=C(N2CCOCC2)C(=O)N1c1ccc(Cl)c(Cl)c1
active: [1] tde | [2] | [3]
